From paper PMC2582240, “Enhanced A3 adenosine receptor selectivity of multivalent nucleoside-dendrimer conjugates” (Journal of Nanobiotechnology, 2008)

Amino acid sequences for entries named in this document (tags omitted).
UniProt P30542, whole entry: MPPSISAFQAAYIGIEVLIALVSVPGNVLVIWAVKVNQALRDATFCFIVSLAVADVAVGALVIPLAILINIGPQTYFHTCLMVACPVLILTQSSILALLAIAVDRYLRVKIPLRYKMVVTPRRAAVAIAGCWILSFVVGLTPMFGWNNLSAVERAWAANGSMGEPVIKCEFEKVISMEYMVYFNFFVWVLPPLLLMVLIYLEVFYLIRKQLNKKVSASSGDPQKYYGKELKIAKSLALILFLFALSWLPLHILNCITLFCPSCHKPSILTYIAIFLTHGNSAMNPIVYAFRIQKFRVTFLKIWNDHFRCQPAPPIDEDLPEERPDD

Target: A1 AR (Homo sapiens, UniProt P30542)
Experiment: [35S]GTPγS binding assay in CHO A1 membranes
Assay type: biochemical
Details: increasing concentrations of DPCPX incubated with 17, CHO A1 membranes
Experimental: CHO (Chinese hamster ovary) cells stably expressing the recombinant human ARs were cultured in Dulbecco's modified Eagle medium (DMEM) and F12 (1:1) supplemented with 10% fetal bovine serum, 100 units/mL penicillin, 100 μg/mL streptomycin, and 2 μmol/mL glutamine. After harvesting, cells were homogenized and suspended. Cells were then centrifuged at 500 g for 10 min, and the pellet was resuspended in 50 mM Tris-HCl buffer (pH 7.5) containing 10 mM MgCl2. The suspension was homogenized and was then recentrifuged at 20 000 g for 20 min at 4°C. […] The protein concentration was measured using the BCA Protein Assay Kit from Pierce.
[^35S]GTPγS binding was measured in 200 μl of buffer containing 50 mM Tris-HCl (pH 7.4), 1 mM EDTA, 1 mM MgCl2, 10 μM GDP, 1 mM dithiothreitol, 100 mM NaCl, 3 units/ml adenosine deaminase, 0.2 nM [^35S]GTPγS, 0.004% CHAPS, 0.5% bovine serum albumin and increasing concentrations of the ligands. […] Non-specific binding of [^35S]GTPγS was measured in the presence of 10 μM unlabelled GTPγS. After the filters were washed, they were placed in scintillation vials containing 5 mL of Hydrofluor scintillation buffer and counted using a Perkin Elmer Liquid Scintillation Analyzer. The EC50 values were determined using GraphPad Prism for all assays.

**Q.** For `CCCn1c(=O)c2[nH]c(C3CCCC3)nc2n(CCC)c1=O` [DPCPX, reference compound], which “Antagonism of [35S]GTPγS binding induced by compound 17” value is on record?
**A.** fully inhibit
